uPA generation = blocks generation of uPA at the cell surface; cell surface uPA generation assay, qHTS; Potency, µM (series often up to 38.3 µM), for the others: at the top dose activity change, negative = inhibition, hits mostly inhibitors; 330,000 compounds, 0.31% hits; active means well fitted inhibition curve with a large enough effect; inconclusive means small, poorly fitted or top-dose-only effect; inactive means no such curve, though single readings can be large or run the other way; tested in mouse RAW 264.7 cells; further: potency means the concentration at half of the fitted maximal effect; on the % scale 0 is the no-effect control and ±100 the full control effect; nearly all actives have a fitted effect of over 55% in size
TDP1 cell noCPT = qHTS for Inhibitors of human tyrosyl-DNA phosphodiesterase 1 (TDP1): qHTS in cells in absence of CPT | DT40 Tdp1-/- hTDP1 cells, no CPT, ATP luminescence, 48 h | Potency, µM (highest dose often 46.2 µM), inactives show top-dose activity change, negative = growth inhibition, actives largely listed as inhibitors | 420,000 compounds, 15% hits; further: potency means the concentration at half of the fitted maximal effect; on the % scale 0 is the no-effect control and ±100 the full control effect; nearly all actives have a fitted effect of over 55% in size
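Growth kinetics read by CellTiter-Glo luminescence after ≥48 hr at 37 °C. Cells: DT40 Tdp1-/- stably carrying human TDP1, 400 per well, compound exposure in the absence of CPT (DMSO vehicle).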
TDP1 cell CPT = growth inhibition of DT40 Tdp1-/-;hTDP1 cells with camptothecin (screen for TDP1 inhibitors) | chicken DT40 Tdp1-/-;hTDP1 cells + 20 nM CPT, ATP luminescence, 48 h | Potency, µM (top dose mostly 46.2 µM), for the others: top-dose activity change, negative = growth inhibition, usual class: inhibitors | 420,000 compounds, 12% hits; further: potency means the concentration at half of the fitted maximal effect; on the % scale 0 is the no-effect control and ±100 the full control effect; nearly all actives have a fitted effect of over 55% in size
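Chicken DT40 Tdp1-/- cells complemented with human TDP1, 400 cells/well, exposed to compounds plus 20 nM camptothecin for at least 48 h at 37 C; viability read as ATP content by CellTiter-Glo luminescence.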
miR-21 reporter = miR-21 reporter, rising signal | HeLa miR-21 FLuc reporter, luciferase, 48 h | Potency, µM (top dose mostly 38.3 µM), inactives show at the highest dose reporter change, positive = more light | 340,000 tested, under 10 active | AID 2288; active = well fitted rising curve with a large enough effect; inconclusive = small, poorly fitted or top-dose-only effect; inactive = no such curve, though single readings can be large or run the other way;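 note: % of control where 0% means no effect; miR-21 action dims this reporter so a rising signal means less miR-21 action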
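HeLa cells endogenously expressing miR-21, stably carrying CMV-driven firefly luciferase with a downstream miR-21 binding site, 2000 cells/well. Titrations up to approximately 40 uM, 48 hours; luciferase luminescence read.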
TDP1 block = TDP1 (human) enzyme inhibition. 350,000 compounds, 0.28% hits. Potency, µM (highest dose often 130 µM), without a hit: top-dose activity change, negative = inhibition, usual class: inhibitors. AID 485290. recombinant TDP1, AlphaScreen DNA substrate cleavage. Q9NUW8; further: potency means the concentration at half of the fitted maximal effect; on the % scale 0 is the no-effect control and ±100 the full control effect; nearly all actives have a fitted effect of over 40% in size
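Compounds were preincubated with Tdp1 (1 nM final) for 15 min at room temperature before substrate (15 nM final) started a 5 min reaction; beads (10 ug/ml final) were then added for 10 min before AlphaScreen detection.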
An asterisk follows results filed as active; ? = inconclusive; · = no result; [ ] = dose if it differs, or a comment. Sampled rows, rich in hits. Any-hit rate of the full collection: about 16%. Unless noted, the call rests on the fitted dose curve; in most records, active means well fitted curve in the direction sought with a large enough effect; inconclusive means small, poorly fitted or top-dose-only effect, or another doubt; inactive means no such curve, though single readings can be large; an effect the other way counts as inactive or inconclusive.

SMILES	uPA generation	TDP1 cell noCPT	TDP1 cell CPT	miR-21 reporter	TDP1 block
C[C@H](CO)N1C[C@H](C)[C@H](CN(C)S(=O)(=O)c2ccc(Cl)cc2)OCc2ccccc2-c2c(n(C)c3ccccc23)C1=O	·	9.2µM*	26µM*	·	·
C[C@H](CO)N1C[C@H](C)[C@@H](CN(C)C(=O)Oc2cccc3ccccc23)OCc2cn(nn2)CCCC1=O	·	-26%	?	·	·
C[C@@H]1CN([C@H](C)CO)C(=O)c2c(c3ccccc3n2C)-c2ccccc2CO[C@H]1CN(C)C(=O)Cc1ccccc1	·	13µM*	23µM*	·	·
COc1ccc(OC)c(N2Cc3ccccc3C2=N)c1	1%	?	?	0%	3%
CSc1nc(C)c(Br)c(N2CC2)n1	-5%	?	-25%	·	·
CN1c2cc(O)c(N=NC(N)=O)cc2CC1S(=O)(=O)O (stereo unspecified)	·	?	0%	·	·
NCCc1cccc(O)c1	·	-12%	-8%	·	6%
CN(C)S(=O)(=O)N1CCC(Oc2cccc(C(=O)NCCC3=CCCCC3)c2)CC1	?	?	16µM*	25%	1%
Cc1c(Cl)cccc1NC(=O)CN1C(=O)C(C)N=C(c2ccccc2)c2ccccc21 (stereo unspecified)	·	23µM*	-15%	0%	-2%
COC(C(=O)C(O)C(C)O)C1Cc2cc3cc(OC4CC(OC5CC(O)C(O)C(C)O5)C(O)C(C)O4)c(C)c(O)c3c(O)c2C(=O)C1OC1CC(OC2CC(OC3CC(C)(O)C(O)C(C)O3)C(O)C(C)O2)C(O)C(C)O1 (stereo unspecified)	·	0.028µM*	0.16µM*	·	·
CO[C@H](C(=O)[C@@H](O)[C@@H](C)O)C1Cc2cc3cc(O[C@H]4C[C@@H](O[C@H]5C[C@@H](O)[C@H](O)[C@@H](C)O5)[C@@H](O)[C@@H](C)O4)c(C)c(O)c3c(O)c2C(=O)[C@H]1O[C@H]1C[C@@H](O[C@H]2C[C@@H](O[C@H]3C[C@](C)(O)[C@H](O)[C@@H](C)O3)[C@H](O)[C@@H](C)O2)[C@H](O)[C@@H](C)O1 (stereo partly specified)	·	0.084µM*	0.075µM*	·	·
C=CCN1CC[C@]23c4c5ccc(O)c4O[C@@H]2C(=O)CC[C@]3(O)[C@H]1C5	·	-11%	-3%	·	11%[56.1 µM]
CC(Oc1ccc(Cl)cc1Cl)C(=O)Nc1ccc(S(=O)(=O)Nc2cnc3ccccc3n2)cc1 (stereo unspecified)	-2%	26µM*	?	-26%	7%
Cc1cccc(NC(=O)c2ncn3c2C(=O)NC[C@H]3C)c1	·	?	-24%	·	·
COc1ccc(-c2cc([C@H]3[C@H]4C=CC[C@@H](C)[C@@H]4C(=O)N3Cc3ccccc3)ccc2F)cc1OC	?	13µM*	23µM*	-15%	0%
Nc1c(Cl)c(Cl)c(Cl)c(Cl)c1Cl	·	-5%[92.5 µM]	-1%[92.5 µM]	·	·
O=C(O)CCC(=O)NCCC1=c2ccccc2=N/C1=C\c1c(O)n(Cc2ccc(F)cc2)c(=S)[nH]c1=O	-2%	0%	49%	-14%	35µM*
COc1ccc2c(c[n+](C)c3c4cc5c(cc4ccc23)OCO5)c1OC	·	1.3µM*	1.3µM*	·	15%
COc1cccc(CNCCc2ccc3c(c2)OCO3)c1OC	20%	?	-35%	-21%	·
COc1cc2c(ccc3c4cc(OC)c(OC)cc4c[n+](C)c23)cc1O	-11%	1.2µM*	1.3µM*	·	·
COc1cc2c(cc1O)C(CCc1ccc(Cl)cc1)N(C)CC2 (stereo unspecified)	·	·	·	·	10%
CC(C)NCC(O)c1ccc(C2CCCC2)cc1 (stereo unspecified)	-4%	16µM*	16µM*	-8%	0%
CCOc1ccc(-c2nc3ccc(-c4nc5ccc(N6CCN(C)CC6)cc5[nH]4)cc3[nH]2)cc1	·	·	·	·	27%
C[C@]12C=CC(=O)C=C1CC[C@@H]1C2=CC[C@]2(C)[C@@H](C(=O)CN3CCN(c4cc(N5CCCC5)nc(N5CCCC5)n4)CC3)CC[C@@H]12	?	13µM*	18µM*	·	·

Results in TDP1 cell CPT (2 entries from above):
| SMILES | TDP1 cell CPT |
| --- | --- |
| COc1cccc(CNCCc2ccc3c(c2)OCO3)c1OC | -35% |
| COc1cc2c(ccc3c4cc(OC)c(OC)cc4c[n+](C)c23)cc1O | 1.3µM* |

(further entries)
SMILES	uPA generation	TDP1 cell noCPT	TDP1 cell CPT	miR-21 reporter	TDP1 block
Cc1nnc2n1-c1sc(CCC(=O)N3CCOCC3)cc1C(c1ccccc1Cl)=NC2	·	-18%	-12%	·	13%
Cc1cc(O)c2c(c1)C(=O)c1cc(O)cc(O)c1C2=O	0%	21µM*	18µM*	·	19%[56.1 µM]
C=C(C)[C@@H]1CC[C@]2(C(=O)O)CC[C@]3(C)[C@H](CC[C@@H]4[C@@]5(C)CC[C@H](O)C(C)(C)[C@@H]5CC[C@]43C)[C@@H]12	-3%	3.7µM*	5.8µM*	3%	-2%
NNc1n[nH]c(=S)n1N	2%	?	?	-8%	0%
Cc1ccc(C2(O)CN3CCC2CC3)cc1 (stereo unspecified)	1%	19%	20%	-1%	·
Nc1ccc(C2(c3ccc(N)cc3)CN3CCC2CC3)cc1	0%	13µM*	18µM*	1%	4%
Cc1occc1C(=O)Nc1cccc(-c2nc(CNC(=O)c3cccc(C#CC(C)(C)O)c3)c(C)o2)c1	·	21µM*	-4%[9.04 µM]	·	·
COc1cccc(C(=O)NCc2nc(-c3cccc(NC(=O)c4ccoc4C)c3)oc2C)c1	·	?	11%[9.04 µM]	·	·
COCC(=O)N1CCC2(CCCN(Cc3ccncc3)C2)CC1	·	-11%	4%	·	·
C=CCN1CC[C@]23c4c5ccc(O)c4OC2C(O)CC[C@@]3(O)[C@H]1C5 (stereo partly specified)	5%	-5%	-5%	·	1%
CC(C)c1oc(=O)cc2c1[C@@H](O)[C@H]1OC(=O)[C@@]3(C)CC[C@@H](O)[C@@]2(C)C13 (stereo partly specified)	?	5.2µM*	5.8µM*	12%	0%
CC(C)c1oc(=O)cc2c1[C@@H](O)[C@H]1OC(=O)[C@@]3(C)C[C@@H](O)[C@@H](O)[C@@]2(C)C13 (stereo partly specified)	2.2µM*	1.8µM*	2.1µM*	28%	5%

Complete entries, quoted from the list:
C=C(C)[C@@H]1CC[C@]2(C(=O)O)CC[C@]3(C)[C@H](CC[C@@H]4[C@@]5(C)CC[C@H](O)C(C)(C)[C@@H]5CC[C@]43C)[C@@H]12 is listed as uPA generation = -3%; TDP1 cell noCPT = 3.7µM*; TDP1 cell CPT = 5.8µM*; miR-21 reporter = 3%; TDP1 block = -2%
Nc1ccc(C2(c3ccc(N)cc3)CN3CCC2CC3)cc1 is listed as uPA generation = 0%; TDP1 cell noCPT = 13µM*; TDP1 cell CPT = 18µM*; miR-21 reporter = 1%; TDP1 block = 4%

The listing continues.
SMILES	uPA generation	TDP1 cell noCPT	TDP1 cell CPT	miR-21 reporter	TDP1 block
CCC1CN1P(=O)(c1ccccc1)N1CC1CC (stereo unspecified)	1%	-27%	-32%	·	·
COC(=O)C1=C(c2ccc(OCc3ccccc3)cc2)C[C@@H]2CC[C@H]1N2C(=O)NCc1ccc([N+](=O)[O-])cc1	12%	12µM*	21µM*	·	2%
COC(=O)C1=C(c2cccc(OCc3ccccc3)c2)C[C@@H]2CC[C@H]1N2C(=O)NCc1ccc([N+](=O)[O-])cc1	-10%	23µM*	18µM*	·	-1%
O=C(c1cc(-c2cccc(Cl)c2)on1)N1CCOCC1	-1%	-6%	18%	-89%	8%
O=P(O)(O)C#Cc1ccccc1	·	·	·	-9%	5%

Screens: PubChem, National Center for Advancing Translational Sciences (NCATS)
